# High-throughput results (PubChem BioAssay)
# miR-21 reporter: miR-21 reporter, rising signal; HeLa miR-21 FLuc reporter, luciferase, 48 h; Potency, µM (doses to about 38.3 µM), for inactives: at the highest dose reporter change, positive = more light; 340,000 tested, under 10 active; AID 2288; active = well fitted rising curve with a large enough effect; inconclusive = small, poorly fitted or top-dose-only effect; inactive = no such curve, though single readings can be large or run the other way;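 further: % of control where 0% means no effect; miR-21 action dims this reporter so a rising signal means less miR-21 action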
#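 Luminescence from a firefly luciferase reporter carrying a miR-21 binding site downstream, stably expressed under a CMV promoter in HeLa cells that make miR-21 endogenously, reports miRNA modulation after 48 h compound exposure up to approximately 40uM final.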
# G9a inh: blocks human histone lysine methyltransferase G9a; Q96KQ7; G9a H3K9 monomethylation, AlphaScreen, 2 h; Potency, µM (highest dose often 102 µM), inactives show top-dose activity, negative = inhibition, usual class: inhibitors; 8.8% of 350,000 active; also: potency is read from the fitted curve at half-maximal effect; % is scaled to controls: 0 for no effect and ±100 for the full control effect; nearly all actives have a fitted effect of over 75% in size
#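 Methyltransferase reactions run at room temperature for 2 h (20 nM enzyme, 500 nM biotin-H3K9 peptide, 20 uM SAM) after a 15 min compound preincubation; product detected by AlphaScreen beads and anti-H3K9me1 antibody.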
# Sfp inh: inhibitors of Bacillus subtilis Sfp phosphopantetheinyl transferase. Q9F4F7. Biochemical Sfp PPTase activity, qHTS. Potency, µM, without a hit: max response, negative = inhibition, most hits filed as inhibitors. 3.5% of 310,000 active; active = well fitted inhibition curve with a large enough effect; inconclusive = small, poorly fitted or top-dose-only effect, or another doubt; inactive = no such curve, though single readings can be large or run the other way;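 note: the enzyme is Sfp with the accession as filed and its product quenches rhodamine fluorescence; potency is the fitted concentration of half-maximal effect; 0% = enzyme reaction without inhibitor and -100% = no enzyme wells; top concentration of the series not given in the record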
#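 Buffer: 50 mM Hepes-Na pH 7.6, 10 mM MgCl2, 0.01% Nonidet P-40, 0.01% BSA. Enzyme 15 nM, pre-exposed to compound 15 min; substrates then added and fluorescence change tracked over 30 min.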
# JMJD2E inh: inhibitors of human JMJD2E histone demethylase | B2RXH2 | JMJD2E catalytic domain, FDH-coupled NADH fluorescence (FDH is formaldehyde dehydrogenase) | Potency, µM (top dose mostly 57.1 µM), for inactives: top-dose activity change, negative = inhibition, most hits filed as inhibitors | 1.6% of 230,000 active; active = well fitted inhibition curve with a large enough effect, not every such curve was filed as active; inconclusive = small, poorly fitted or top-dose-only effect, or another doubt; inactive = no such curve, though single readings can be large or run the other way;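 also: potency is read from the fitted curve at half-maximal effect; 0% = wells with enzyme and -100% = buffer wells without enzyme; nearly all actives have a fitted effect of over 50% in size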
# ALDH1A1 inh: ALDH1A1 (human) enzyme inhibition | P00352 | Purified ALDH1A1, NADH fluorescence, propionaldehyde substrate | Potency, µM (series often up to 75.3 µM), for inactives: top-dose activity, negative = inhibition, most hits filed as inhibitors | 7.3% of 220,000 active; active = well fitted inhibition curve with a large enough effect, not every such curve was filed as active; inconclusive = small, poorly fitted or top-dose-only effect, or another doubt; inactive = no such curve, though single readings can be large or run the other way;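 also: potency is read from the fitted curve at half-maximal effect; plate controls were no enzyme wells and a reference inhibitor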
# LMNA splice mod: modulators of lamin A splicing; HeLa LMNA splicing GFP/RFP minigene ratio, 48 h; AID 1487; Potency, µM (series often up to 46.1 µM), for the others: top-dose ratio change, negative = inhibition, most hits filed as inhibitors; 0.01% of 200,000 active; active = well fitted inhibition curve with a large enough effect in the signal ratio, with a control signal flat, not every such curve was filed as active; inconclusive = small, poorly fitted or top-dose-only effect, or effect the other way, or a change in a side signal; the % refers to the signal ratio; also: potency is read from the fitted curve at half-maximal effect; % is scaled to controls: 0 for no effect and ±100 for the full control effect
#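 Read-out is the ratio of GFP to DsRed2 object intensity, acquired by 488 nm laser-scanning cytometry on HeLa lamin A-EGFP minigene reporter cells. Compound incubation 48 hrs at 37 °C in Opti-MEM with 2% FBS; DMSO 0.5% final.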
# Starred values were filed as active, the others as inactive; ? = inconclusive; / = no result given; [ ] = dose if it differs, or a comment. Most compounds without a hit are left out; they make up all but 13% or so of the library. Unless noted, calls follow the shape of the dose curve; as a rule, active = well fitted curve in the direction sought with a large enough effect; inconclusive = small, poorly fitted or top-dose-only effect, or another doubt; inactive = no such curve, though single readings can be large; an effect the other way counts as inactive or inconclusive.
# Assay codes – A = miR-21 reporter; B = G9a inh; C = Sfp inh; D = JMJD2E inh; E = ALDH1A1 inh; F = LMNA splice mod
CC1(C(=O)Nc2ncc(Cc3ccc(Br)cc3)s2)Cc2ccccc2C(=O)O1 (stereo not given)
  A: 23.0%; B: 1.9%[59 µM]; C: /; D: /; E: /; F: /

COC(=O)c1ccc2c(=O)n(CCN3CCOCC3)c(=S)[nH]c2c1
  A: -4.8%; B: -47.5%[12.7 µM]; C: -4.6%; D: -5.3%; E: 3.98µM*; F: 7.6%

O=Cc1c(NCCc2ccc(F)cc2)c2ccccc2[nH]c1=O
  A: -12.7%; B: -0.6%; C: 4.8%; D: /; E: /; F: /

O=Cc1c(NCCN2CCCC2)c2ccccc2[nH]c1=O
  A: -1.4%; B: 10µM*; C: 2.5%; D: /; E: /; F: /

COc1ccccc1Cn1c(=S)[nH]c2cc(C(=O)NCC(OC)OC)ccc2c1=O
  A: -2.5%; B: -12.6%; C: 6.6%; D: /; E: /; F: /

COC(=O)c1ccc2c(=O)n(CCN3CCOCC3)c(SCC(=O)C(C)(C)C)nc2c1
  A: -1.7%; B: 82.0%[59 µM]; C: 11.6%; D: 0.0%; E: 12.6µM*; F: -2.1%

COc1ccccc1Cn1c(=S)[nH]c2cc(C(=O)NCCN3CCOCC3)ccc2c1=O
  A: -1.0%; B: ?; C: 11.2%; D: 4.8%; E: 20µM*; F: ?

CCOC(=O)CSc1nc2cc(C(=O)OC)ccc2c(=O)n1CCN1CCOCC1
  A: 0.0%; B: 12.4%; C: 11.9%; D: 3.7%; E: ?; F: 1.8%

Cc1ccc(-n2c3nc(=O)[nH]c(=O)c-3cc3c(C)nn(-c4ccccc4)c32)cc1Cl
  A: -7.8%; B: 27.8%[59 µM]; C: /; D: /; E: /; F: /

CCOc1ccc(Sc2cc(C(=O)NCCCOC)c3ccccc3n2)cc1
  A: 15.7%; B: 9.0%[59 µM]; C: /; D: /; E: /; F: 2.5%[46 µM]

COc1ccccc1Cn1c(=S)[nH]c2cc(C(=O)NCCCN3CCOCC3)ccc2c1=O
  A: -0.1%; B: 35.5µM*; C: -11.0%; D: /; E: /; F: /

O=C(NCCCN1CCOCC1)c1c(O)c2ccccc2[nH]c1=O
  A: -9.2%; B: 50.1µM*; C: 0.7%; D: ?; E: 9.6%; F: 14.9%

COCCCNC(=O)c1ccc2c(=O)n(Cc3ccccc3OC)c(=S)[nH]c2c1
  A: 2.8%; B: -7.0%; C: -6.2%; D: /; E: /; F: /

O=C(NCCCN1CCOCC1)c1cc2c(=O)[nH]c3ccccc3c2s1
  A: -15.5%; B: 26.3%[59 µM]; C: 11.0%; D: ?; E: ?; F: -2.0%

Cc1cccc(CNC(=O)c2ccc(NC(=O)C3=CSCCO3)cc2)c1
  A: -47.2%; B: -8.9%[59 µM]; C: 15.6%; D: /; E: /; F: /

O=C(CCNS(=O)(=O)c1ccc(Br)cc1)NCCc1ccccc1
  A: 2.8%; B: -15.0%; C: 10.6%; D: /; E: /; F: /

Cc1ccc(S(=O)(=O)NC(C)CCc2ccccc2)cc1 (stereo not given)
  A: -6.9%; B: 56.6%; C: -4.9%; D: -4.4%; E: 25.1µM*; F: 8.7%

NS(=O)(=O)c1ccc(CCNC(=O)CCS(=O)(=O)c2ccc(Br)cc2)cc1
  A: -1.3%; B: 28.2µM*; C: 3.5%; D: /; E: /; F: /

CC(NS(=O)(=O)c1ccc(Br)cc1)C(=O)NCCc1ccccc1 (stereo not given)
  A: -1.5%; B: 39.8µM*; C: -16.5%; D: -3.5%; E: -13.6%; F: -14.1%

O=S(=O)(NCCc1ccccc1)c1ccc(Br)cc1
  A: -12.1%; B: 27.0%; C: -0.6%; D: /; E: /; F: /

O=C(CCS(=O)(=O)c1ccc(Br)cc1)NCCc1ccccc1
  A: -0.3%; B: 50.1µM*; C: 16.4%; D: /; E: /; F: /

Cc1ccc(-n2c3nc(=O)n(C)c(=O)c-3cc3ccccc32)c(C)c1
  A: 1.5%; B: 1.3%[59 µM]; C: /; D: /; E: /; F: /

Cc1ccc(C)c(-n2c3nc(=O)n(C)c(=O)c-3cc3ccccc32)c1
  A: -1.8%; B: 79.4µM*; C: -10.7%; D: ?; E: /; F: /

O=Cc1cn(CCOc2ccccc2)c2ccccc12
  A: -23.2%; B: 50.6%; C: -7.2%; D: /; E: /; F: /

O=C(CN1CCN(Cc2ccccc2)CC1)Nc1cccc(Cl)c1
  A: -3.1%; B: /; C: 10.9%; D: /; E: /; F: /

# Reformatted: entries from further up.
O=C(NCCCN1CCOCC1)c1c(O)c2ccccc2[nH]c1=O
- miR-21 reporter = -9.2%
- G9a inh = 50.1µM*
- Sfp inh = 0.7%
- JMJD2E inh = ?
- ALDH1A1 inh = 9.6%
- LMNA splice mod = 14.9%

COCCCNC(=O)c1ccc2c(=O)n(Cc3ccccc3OC)c(=S)[nH]c2c1
- miR-21 reporter = 2.8%
- G9a inh = -7.0%
- Sfp inh = -6.2%
- JMJD2E inh = /
- ALDH1A1 inh = /
- LMNA splice mod = /

# Next records follow.
# Assay codes – A = miR-21 reporter; B = G9a inh; C = Sfp inh; D = JMJD2E inh; E = ALDH1A1 inh; F = LMNA splice mod
COC(=O)c1cccc(NC(=O)CN2CCN(Cc3ccccc3)CC2)c1
  A: -16.1%; B: ?; C: 16.9%; D: 13.7%; E: 25.1µM*; F: 3.6%

CC(=O)c1cccc(NC(=O)Cc2ccc3c(c2)CCCC3)c1
  A: -2.5%; B: ?; C: -25.4%; D: 1.5%; E: 12.6µM*; F: -3.8%

CC(=O)c1cccc(NC(=O)CN2CCN(Cc3ccccc3)CC2)c1
  A: -2.2%; B: 7.08µM*; C: 56.2µM*; D: /; E: /; F: /

COc1cccc(C(=O)Nc2ccc3nc(SCCOc4ccccc4)sc3c2)c1
  A: -2.6%; B: 6.2%[59 µM]; C: /; D: /; E: /; F: 24.2%[46 µM]

CCOC(=O)c1cc2c(ccn2C)n1CC(=O)N(Cc1ccccc1)c1ccc(F)cc1
  A: 11.8%; B: 28.2µM*; C: -1.7%; D: ?; E: -12.1%; F: ?

CC(C)OC(=O)c1cc2c(ccn2C)n1CC(=O)N(Cc1ccccc1)c1ccc(F)cc1
  A: 16.1%; B: 28.2µM*; C: -23.5%; D: -1.0%; E: ?; F: ?

CCOC(=O)c1cc2c(ccn2C)n1CC(=O)N1C(C)CCCC1C (stereo not given)
  A: 6.5%; B: -37.3%; C: 13.4%; D: ?; E: ?; F: 1.5%[46 µM]

CCOC(=O)c1cc2c(ccn2C)n1Cc1ccccc1Cl
  A: -4.3%; B: 50.1µM*; C: ?; D: ?; E: ?; F: 6.0%[46 µM]

CCOC(=O)c1cc2c(ccn2C)n1Cc1ccccc1C
  A: -1.3%; B: ?; C: -6.7%; D: ?; E: -2.8%; F: -9.9%

Cc1ccc(C)c(Cn2c(C(=O)OC(C)C)cc3c2ccn3C)c1
  A: -1.7%; B: 50.1µM*; C: 4.2%; D: ?; E: ?; F: -2.4%

CC(C)OC(=O)c1cc2c(ccn2-c2ccc(F)cc2)n1CC(=O)N1CCN(C(=O)c2ccco2)CC1
  A: 11.5%; B: /; C: -17.2%; D: ?; E: /; F: /

CCC(=O)NCCc1nc2cc(NC(=O)c3ccco3)ccc2n1C
  A: -47.1%; B: 3.8%; C: 8.6%; D: /; E: /; F: /

COc1ccc(NC(=O)CSc2nc3cc(OC)c(OC)cc3c3nc(-c4ccccc4)nn23)cc1Cl
  A: -4.4%; B: 6.1%[59 µM]; C: /; D: /; E: /; F: /

Cc1ccccc1Cn1c(C(=O)OC(C)C)cc2c1ccn2C
  A: 5.2%; B: 17.8%[0.501 µM]; C: -7.5%; D: ?; E: ?; F: 12.0%

CCOC(=O)c1cc2c(ccn2C)n1CC(=O)N1CCN(c2ccccc2)CC1
  A: 0.0%; B: ?; C: 0.2%; D: ?; E: ?; F: 3.7%

CCOC(=O)c1cc2c(ccn2C)n1CC(=O)N(Cc1ccccc1)c1ccccc1
  A: 11.0%; B: 28.2µM*; C: 9.4%; D: ?; E: -15.5%; F: ?

CC(C)OC(=O)c1cc2c(ccn2C)n1CC(=O)N1CCC(Cc2ccccc2)CC1
  A: 2.9%; B: 44.7µM*; C: -7.6%; D: -24.4%; E: ?; F: -0.3%

COC(=O)c1nnn(-c2cccc(Cl)c2)c1C(=O)OC
  A: -8.5%; B: 6.1%[59 µM]; C: 7.2%; D: -1.1%; E: /; F: /

CCCCNC(=O)CSc1nc(O)c(Cc2ccc(OC)cc2)c(=O)[nH]1
  A: 8.5%; B: 8.3%; C: 19.5%; D: -1.4%; E: /; F: /

COc1ccc(Cc2c(O)nc(SCC(=O)NC34CC5CC(CC(C5)C3)C4)[nH]c2=O)cc1
  A: -3.1%; B: 44.7µM*; C: 10.4%; D: -2.5%; E: ?; F: ?

COc1cc(NS(=O)(=O)c2ccc(NC(=O)/C=C/C(=O)O)cc2)nc(OC)n1
  A: -0.4%; B: /; C: -4.9%; D: /; E: /; F: /

C=CC1=C2C=C(C3CC3)N(CCN3CCOCC3)C=C2C(=O)C(C)(OC(=O)c2ccco2)C1=O (stereo not given)
  A: /; B: /; C: 15.9%; D: ?; E: ?; F: 11.0%[9.22 µM]

Clc1ccc2nc(COc3ccccc3)[nH]c2c1
  A: -15.7%; B: 7.6%[0.501 µM]; C: 8.7%; D: /; E: /; F: /

CN=c1scc(-c2ccc(F)cc2)n1/N=C/c1ccc(O)c(O)c1
  A: 23.3%; B: 4.47µM*; C: 56.2µM*; D: 28.2µM*; E: ?; F: /

Cc1nn(C(=O)c2ccccc2F)c(C)c1S(=O)(=O)N1CCCCCC1
  A: 0.0%; B: -3.4%[59 µM]; C: /; D: /; E: /; F: 0.9%[46 µM]
